# Experimental data from patent US20240299352A1, “COMBINATION THERAPIES WITH SETD2 INHIBITORS” (Epizyme, Inc., priority 2021, published 2024).
# How the values were obtained:
# [1] = test system: diffuse large B-cell lymphoma (DLBCL) cell lines; experiment: Co-treatment combination study with Cpd. No. 15, further cell lines (Table F), CellTiter-Glo viability, Loewe Volume; conditions: co-treatment with Cpd. No. 15, cell line TMD8 (Cat. No. M-097)
# [2] = test system: SUDHL5; experiment: Co-treatment combination study with Cpd. No. 15, CellTiter-Glo viability, Loewe Volume; assay type: cell-based; conditions: in combination with Cpd. No. 15, seven days, DLBCL cell line SUDHL5
# [3] = test system: JEKO1; experiment: as above; assay type: cell-based; conditions: in combination with Cpd. No. 15, seven days, mantle cell lymphoma cell line JEKO1 (CRL-3006)
# [4] = test system: Z138; experiment: as above; assay type: cell-based; conditions: in combination with Cpd. No. 15, seven days, mantle cell lymphoma cell line Z138 (CRL-3001)
# [5] = test system: MAVER1; experiment: as above; assay type: cell-based; conditions: in combination with Cpd. No. 15, seven days, mantle cell lymphoma cell line MAVER1 (CRL-3008)
# [6] = test system: DOHH2; experiment: as above; assay type: cell-based; conditions: in combination with Cpd. No. 15, seven days, DLBCL cell line DOHH2
# [7] = test system: WILL2; experiment: as above; assay type: cell-based; conditions: in combination with Cpd. No. 15, seven days, DLBCL cell line WILL2
# [8] = test system: MINO; experiment: as above; assay type: cell-based; conditions: in combination with Cpd. No. 15, seven days, mantle cell lymphoma cell line MINO (CRL-3000)
# [9] = test system: SUDHL2; experiment: as above; assay type: cell-based; conditions: in combination with Cpd. No. 15, seven days, DLBCL cell line SUDHL2
# [10] = test system: RL; experiment: as above; assay type: cell-based; conditions: in combination with Cpd. No. 15; 6-Day Cotreatment; DLBCL cell line RL
# [11] = test system: KARPAS422; experiment: as above; assay type: cell-based; conditions: in combination with Cpd. No. 15, seven days, DLBCL cell line KARPAS422
# [12] = test system: diffuse large B-cell lymphoma (DLBCL) cell lines; experiment: Pre-treatment model combination study with Cpd. No. 15 (7 days pre-treatment, then combination; Table G), CellTiter-Glo viability, Loewe Volume; conditions: 7 days pre-treatment with Cpd. No. 15, then combination, cell line OCILY7 (Cat. No. ACC 688)
# [13] = test system: Pfeiffer; experiment: Co-treatment combination study with Cpd. No. 15, CellTiter-Glo viability, Loewe Volume; assay type: cell-based; conditions: in combination with Cpd. No. 15, seven days, DLBCL cell line Pfeiffer
# [14] = test system: SUDHL8; experiment: as above; assay type: cell-based; conditions: in combination with Cpd. No. 15, seven days, DLBCL cell line SUDHL8
# [15] = test system: WSUNHL; experiment: as above; assay type: cell-based; conditions: in combination with Cpd. No. 15, seven days, DLBCL cell line WSUNHL
# [16] = test system: HT; experiment: as above; assay type: cell-based; conditions: in combination with Cpd. No. 15, seven days, DLBCL cell line HT
# [17] = test system: DB; experiment: as above; assay type: cell-based; conditions: in combination with Cpd. No. 15, seven days, DLBCL cell line DB
# [18] = test system: SUDHL10; experiment: as above; conditions: in combination with Cpd. No. 15; 5-Day Cotreatment; DLBCL cell line SUDHL10
Molecule,"Combination effect with Cpd. No. 15 (Loewe Volume class), TMD8 [1]",Combination effect (Loewe Volume) SUDHL5 [2],Combination effect (Loewe Volume) JEKO1 [3],Combination effect (Loewe Volume) Z138 [4],Combination effect (Loewe Volume) MAVER1 [5],Combination effect (Loewe Volume) DOHH2 [6],Combination effect (Loewe Volume) WILL2 [7],Combination effect (Loewe Volume) MINO [8],Combination effect (Loewe Volume) SUDHL2 [9],Combination effect (Loewe Volume) RL [10],Combination effect (Loewe Volume) KARPAS422 [11],"Combination effect with Cpd. No. 15 (Loewe Volume class), OCILY7 [12]",Combination effect (Loewe Volume) Pfeiffer [13],Combination effect (Loewe Volume) SUDHL8 [14],Combination effect (Loewe Volume) WSUNHL [15],Combination effect (Loewe Volume) HT [16],Combination effect (Loewe Volume) DB [17],Combination effect (Loewe Volume) SUDHL10 [18]
"CC[C@]1(O)C[C@H]2CN(CCc3c([nH]c4ccccc34)[C@@](C(=O)OC)(c3cc4c(cc3OC)N(C=O)[C@H]3[C@@](O)(C(=O)OC)[C@H](OC(C)=O)[C@]5(CC)C=CCN6CC[C@]43[C@@H]65)C2)C1 [Vincristine, vincristine]",Additivity (between 1 and −1: additivity),Synergy (VLoewe>1: synergy),Additivity (between 1 and −1: additivity),Additivity (between 1 and −1: additivity),Synergy (VLoewe>1: synergy),Synergy (VLoewe>1: synergy),Additivity (between 1 and −1: additivity),Additivity (between 1 and −1: additivity),Additivity (between 1 and −1: additivity),Synergy (VLoewe>1: synergy),Synergy (VLoewe>1: synergy),,,,,,,
CC[C@]1(O)C[C@H]2CN(CCc3c([nH]c4ccccc34)[C@@](C(=O)OC)(c3cc4c(cc3OC)N(C=O)[C@H]3[C@@](O)(C(=O)OC)[C@H](OC(C)=O)[C@]5(CC)C=CCN6CC[C@]43[C@@H]65)C2)C1 [Vincristine (O)],,,,,,,,,,,,Additivity (between 1 and −1: additivity),,,,,,
oxaliplatin,,Additivity (between 1 and −1: additivity),,,,,Additivity (between 1 and −1: additivity),,,,,,Additivity (between 1 and −1: additivity),Additivity (between 1 and −1: additivity),Synergy (VLoewe>1: synergy),Additivity (between 1 and −1: additivity),Additivity (between 1 and −1: additivity),Additivity (between 1 and −1: additivity)
